Experimental data: patent US9745299B2, “Substituted tricyclic benzimidazoles as kinase inhibitors” (SELVITA SA, priority 2012, dated 2017)

Protein sequences, listed by entry. Tags and fused reporters are not part of them.
UniProt Q00535, whole entry: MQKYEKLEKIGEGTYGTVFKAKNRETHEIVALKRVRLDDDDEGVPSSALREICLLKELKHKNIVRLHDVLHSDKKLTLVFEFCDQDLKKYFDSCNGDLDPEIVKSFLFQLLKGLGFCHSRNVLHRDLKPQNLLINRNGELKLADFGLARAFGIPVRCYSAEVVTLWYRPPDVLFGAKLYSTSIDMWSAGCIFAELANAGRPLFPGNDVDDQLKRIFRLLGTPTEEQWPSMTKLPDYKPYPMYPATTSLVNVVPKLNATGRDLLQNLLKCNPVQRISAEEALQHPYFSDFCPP
UniProt P50750, whole entry: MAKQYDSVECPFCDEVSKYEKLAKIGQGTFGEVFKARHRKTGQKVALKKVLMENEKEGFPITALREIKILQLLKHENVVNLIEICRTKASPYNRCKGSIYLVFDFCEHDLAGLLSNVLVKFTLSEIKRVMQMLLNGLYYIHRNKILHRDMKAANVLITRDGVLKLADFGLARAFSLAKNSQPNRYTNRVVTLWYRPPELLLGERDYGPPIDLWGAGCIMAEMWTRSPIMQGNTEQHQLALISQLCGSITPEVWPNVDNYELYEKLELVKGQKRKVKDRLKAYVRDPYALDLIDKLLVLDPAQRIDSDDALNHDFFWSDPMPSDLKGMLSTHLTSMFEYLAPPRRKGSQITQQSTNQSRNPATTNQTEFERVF

Columns and labels:
Assay type in all cases: biochemical
CDK5/p25 = target: T1, CDK5/p25 (Homo sapiens, UniProt Q00535); experiment: ADP-Glo Kinase Assay, CDK5/p25; conditions: 1 μM compound; ATP at apparent Km (12 μM)
T1 construct: purchased Millipore, Billerica, Mass., USA
Description: (§1) Testing of the compounds described in this invention was carried out using the ADP-Glo™ Kinase Assay from Promega Corporation (Madison, Wis., USA).
(§2) The ADP-Glo™ Kinase Assay is a luminescent ADP detection assay to measure kinase activity by quantifying the amount of ADP produced during a kinase reaction. The kinase assay is performed in kinase assay buffer (5 mM MOPS, pH 7.5, 5 mM MgCl2, 0.4 mM EDTA, 1.5 mM DTT). Test samples initially dissolved in DMSO at 10 mM were diluted with the assay buffer to 1000 nM. A 30 μL volume/well of a mixture of substrates containing ATP (final ATP concentration in each kinase assay was equal to its apparent ATP Km).
(§3) The assay was performed in two steps: first, after the kinase reaction, an equal volume of ADP-Glo™ Reagent was added to terminate the kinase reaction and deplete the remaining ATP. Second, the Kinase Detection Reagent was added to simultaneously convert ADP to ATP and allowed the newly synthesized ATP to be measured using a luciferase/luciferin reaction. The luminescent signal generated was proportional to the ADP concentration produced and was correlated with kinase activity.

CDK2/CyclinE = target: T2, CDK2/CyclinE (Homo sapiens, UniProt P24941); experiment: ADP-Glo Kinase Assay, CDK2/CyclinE; conditions: 1 μM compound; ATP at apparent Km (130 μM)
T2 construct: purchased Millipore, Billerica, Mass., USA
Description: as §1, §2, §3

CDK9/CyclinT = target: T3, CDK9/CyclinT (Homo sapiens, UniProt P50750); experiment: ADP-Glo Kinase Assay, CDK9/CyclinT; conditions: 1 μM compound; ATP at apparent Km (26 μM)
T3 construct: purchased Proqinase, Freiburg, Germany
Description: as §1, §2, §3

% inhibition at 1 μM CDK5/p25 (CDK5/p25): 50%
% inhibition at 1 μM CDK2/CyclinE (CDK2/CyclinE): 68%
% inhibition at 1 μM CDK9/CyclinT (CDK9/CyclinT): 93%
Compound: CN1CC[C@H](c2c(O)cc(O)c3c(=O)cc(-c4ccccc4Cl)oc23)C(O)C1 (stereo partly drawn) [Flavopiridol, flavopyridol, reference compound]
